Test results from paper PMC8838982 (Bioorganic chemistry, 2021).

Target: influenza virus polymerase (Influenza A virus, UniProt P03433)
Assay type: cell-based, influenza virus A/PR/8/34

## NC(=O)c1ncn([C@@H]2O[C@H](CO)[C@@H](O)[C@H]2O)n1 [Ribavirin, ribavirin]
  Fold increase in EC50 compared to wild-type: 1.0 fold
